The source made the active and inactive calls. The calls are words filed in the database; no cut-off is given here.
Molecular target: Delta-type opioid receptor (Homo sapiens) (UniProt P41143)
Test: Displacement of [3H]Cl-DPDPE from human delta opioid receptor transfected in CHO cell membranes after 60 mins

By UniProt entry, the sequences of proteins in these tests, tags left out.
UniProt P41143, whole entry, looked up: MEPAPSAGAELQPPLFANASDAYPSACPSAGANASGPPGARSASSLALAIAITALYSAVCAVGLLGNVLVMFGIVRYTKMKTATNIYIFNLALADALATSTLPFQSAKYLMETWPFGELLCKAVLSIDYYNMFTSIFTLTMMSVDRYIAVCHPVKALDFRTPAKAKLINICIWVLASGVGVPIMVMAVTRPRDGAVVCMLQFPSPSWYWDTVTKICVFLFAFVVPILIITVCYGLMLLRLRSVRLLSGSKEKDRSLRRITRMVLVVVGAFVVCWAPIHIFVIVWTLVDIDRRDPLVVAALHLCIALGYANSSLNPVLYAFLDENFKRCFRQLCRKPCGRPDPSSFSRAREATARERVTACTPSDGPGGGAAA

CN(C(=O)Cc1ccccc1)[C@H]1CC[C@@]2(CCCO2)C[C@@H]1N1CCCC1 was tested, and the inhibition was “inactive”.

Source: ChEMBL document CHEMBL3259735, “Designing bifunctional NOP receptor-mu opioid receptor ligands from NOP-receptor selective scaffolds. Part II” (Bioorg Med Chem, 2014)
